These are literature values, as cited in EP4509142A1, “FGFR4 AS TARGET IN CANCER TREATMENT” (Ona Therapeutics S.L., priority 2023, dated 2025).

This data set deals with HR+/HER2-low BC. Particulars: in less than 10 months; Modi et al., NEJM 2022; cited from earlier work.

Turning to trastuzumab deruxtecan, the “proportion of patients who progress” value is given as 50%.
